Here are results for 1 molecule from article PMC8954350, “Non-Canonical Cannabinoid Receptors with Distinct Binding and Signaling Properties in Prostate and Other Cancer Cell Types Mediate Cell Death” (International Journal of Molecular Sciences, 2022).

The test system of this experiment is DU-145 cells. Description: Mitochondrial membrane potential (JC-1 staining), DU-145 cells. Format: cell-based, human. As to conditions: 10 μM, 24 h.

On to `Cc1c(C(=O)NN2CCCCC2)nn(-c2ccc(Cl)cc2Cl)c1-c1ccc(I)cc1` [AM-251], for which the “mitochondrial membrane potential (MMP) depolarization” value is “reduced MMP”.
